The entries are a selection whose mix differs from that of the whole data set. Active and inactive are the calls of the source.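 How the source made its calls: active means activation above the run's mean compound activation plus 3 SD (cut at about 16% in these data); inactive means the rest.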

Amino acid sequences for entries named in this document (tags omitted).
UniProt P11229, whole entry: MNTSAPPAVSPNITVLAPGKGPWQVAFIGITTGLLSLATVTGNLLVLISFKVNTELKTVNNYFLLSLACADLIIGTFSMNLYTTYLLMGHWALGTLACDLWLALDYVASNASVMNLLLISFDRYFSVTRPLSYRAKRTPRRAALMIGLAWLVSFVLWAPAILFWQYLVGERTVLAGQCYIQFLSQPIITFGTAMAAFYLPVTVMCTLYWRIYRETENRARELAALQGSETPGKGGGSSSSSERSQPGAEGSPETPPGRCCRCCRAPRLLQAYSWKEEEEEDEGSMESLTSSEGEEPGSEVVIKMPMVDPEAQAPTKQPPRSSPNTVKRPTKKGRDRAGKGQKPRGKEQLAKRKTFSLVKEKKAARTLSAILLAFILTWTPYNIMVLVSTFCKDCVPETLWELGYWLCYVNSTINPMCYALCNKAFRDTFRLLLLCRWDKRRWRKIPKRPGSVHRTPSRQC

This assay addresses Muscarinic acetylcholine receptor M1 (Homo sapiens) (UniProt P11229). The experiment in a line: CHRM1 activation via calcium signal – Fluo-8 calcium fluorescence, CHO-K1 cells, HTS, primary screen (AID 588814).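 Further: peak over basal fluorescence ratio within a 140 s kinetic read after compound addition.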 The conditions noted are these: CHO-K1 hM1, Fluo-8 calcium fluorescence, agonist mode; at 3 µM; stronger effect = higher value; 0% DMSO, 100% acetylcholine EC100.
Regarding `CN1CCC(Nc2ccc(F)c(Cl)c2)CC1`, the activation was inactive: -5.58%. Regarding `CCOc1ncccc1C(=O)NCC1(N2CCOCC2)CCCCC1`, the activation is inactive: -5.97%. As for `CCCOc1ccc(C(=O)NCC2(N(C)C)CCCCC2)cc1`, the figure is inactive: -9.22%.

Take `O=c1[nH]c2ccccc2n1C1CCN(C(c2cc3ccccc3o2)c2nnnn2C2CCCC2)CC1` (configuration not stated): the activation is inactive: -0.14%.

For the molecule `O=C(O)C1(Nc2ccccc2)CCN(Cc2ccccc2)CC1`, the activation was inactive: -6.14%. As for `CC(C)(C)OC(=O)N1CCC(Nc2ccccc2)CC1`, the figure is inactive: -2.32%; as for `CCC(CO)(C(=O)OC1CN2CCC1CC2)c1ccccc1` (configuration not stated), inactive: -6.07%. As for `COc1cccc(C(c2nnnn2C2CCCC2)N2CCC(n3c(=O)[nH]c4ccccc43)CC2)c1OC` (configuration not stated), the figure is inactive: -2.13%; as for `COc1cc(OC)cc(C(=O)NCC2(N3CCOCC3)CCCCC2)c1`, inactive: -3.77%; as for `COc1cccc(C(=O)N(c2cc(C)cc(C)c2)C2CCN(C(=O)OC(C)(C)C)CC2)c1`, inactive: -4.66%. As for `CN1CCC(Nc2ccc(Cl)cc2)CC1`, the figure is inactive: -0.24%. As to `O=c1[nH]c2ccccc2n1C1CCN(C(c2ccnc3ccccc23)c2nnnn2C2CCCCC2)CC1` (configuration not stated), the activation is inactive: 5.05%.

With `COc1cc(OC)cc(C(=O)NCC2(N3CCCCC3)CCCCC2)c1`, the activation is inactive: -7.59%. As for `CCC(c1nnnn1C1CCCCC1)N1CCC(n2c(=O)[nH]c3ccccc32)CC1` (configuration not stated), the figure is inactive: 6.63%; as for `CC(=O)N(c1ccccc1)C1CCNCC1`, inactive: -5.36%. On to `COc1cccc(C(c2nnnn2C2CCCCC2)N2CCC(n3c(=O)[nH]c4ccccc43)CC2)c1OC` (configuration not stated), for which the activation is inactive: 3.57%. As for `Cc1ccc(NC2(C#N)CCN(Cc3ccccc3)CC2)cc1`, the figure is inactive: -2.56%; as for `Fc1ccccc1NC1CCN(Cc2ccccc2)CC1`, inactive: -3.45%; as for `Cc1ccc(C(=O)NCC2(N3CCCCC3)CCCCC2)o1`, inactive: -5.27%.

Regarding `CC(C)(C)n1nnnc1C(c1ccnc2ccccc12)N1CCC(n2c(=O)[nH]c3ccccc32)CC1` (configuration not stated), the activation is inactive: 12.2%. As for `COc1ccc(C(c2nnnn2C2CCCCC2)N2CCC(n3c(=O)[nH]c4ccccc43)CC2)cc1` (configuration not stated), the figure is inactive: -1.76%; as for `CCN1CCC(Nc2cccc(F)c2)CC1`, inactive: -11.3%. In the case of `Cc1ccccc1NC1(C#N)CCN(Cc2ccccc2)CC1`, the activation is inactive: -3.99%. As for `Cn1c(=O)[nH]cc(N(CCCl)CCCl)c1=O`, the figure is inactive: -0.78%. As for `CN(C)c1ccc(C(=O)NCC2(N3CCCCC3)CCCCC2)cc1`, the figure is inactive: -4.17%.

Consider `O=C(NCC1(N2CCCCC2)CCCCC1)c1ccco1`, for which the activation is inactive: -5.17%.

For the molecule `CC(C)(C)OC(=O)N1CCC(N(C(=O)c2ccccc2)c2ccc(Cl)cc2)CC1`, the activation is inactive: -6.28%. As for `N#Cc1ccc(C(=O)NCC2(N3CCCCC3)CCCCC2)cc1`, the figure is inactive: -6.8%; as for `O=c1[nH]c2ccccc2n1C1CCN(C(c2ccccc2)c2nnnn2C2CCCC2)CC1` (configuration not stated), inactive: 11.2%; as for `CCCN1CCC(Nc2cc(OC)cc(OC)c2)CC1`, inactive: -9.45%.

Take `Cc1cc(N(CCCl)CCCl)ccc1C=O`: the activation was inactive: -6.41%. As for `c1ccc(CN2CCC(Nc3ccccc3)CC2)cc1`, the figure is inactive: -4.95%; as for `CN(C)C1(CNC(=O)c2cccc(C#N)c2)CCCCC1`, inactive: -4.74%.

For the molecule `CC(C)(C)n1nnnc1C(c1cccc2ccccc12)N1CCC(n2c(=O)[nH]c3ccccc32)CC1` (configuration not stated), the activation is inactive: 1.99%. As for `O=C(NCC1(N2CCOCC2)CCCCC1)c1cc(Br)ccc1Cl`, the figure is inactive: -6.95%; as for `COc1cc(C(=O)NCC2(N3CCOCC3)CCCCC2)cc(OC)c1C`, inactive: -4.96%. As for `CCCCn1nnnc1C(c1ccccc1)N1CCC(n2c(=O)[nH]c3ccccc32)CC1` (configuration not stated), the figure is inactive: -6.11%.

For `O=c1[nH]c2ccccc2n1C1CCN(C(c2ccnc3ccccc23)c2nnnn2C2CCCC2)CC1` (configuration not stated), the activation is inactive: -2.66%. As for `COc1ccc(C(=O)NCC2(N3CCOCC3)CCCCC2)cc1OC`, the activation was inactive: 1.47%.

With `O=c1[nH]c2ccccc2n1C1CCN(C(c2cccs2)c2nnnn2C2CCCCC2)CC1` (configuration not stated), the activation was inactive: 3.16%. As for `N/C(=N\O)c1c(N)no[n+]1[O-]`, the figure is inactive: -2.67%; as for `COc1cccc(C(c2nnnn2C(C)(C)C)N2CCC(n3c(=O)[nH]c4ccccc43)CC2)c1OC` (configuration not stated), inactive: 9.02%.

For the molecule `CCOC(=O)N1CCC(Nc2ccc(C)cc2)CC1`, the activation was inactive: -10.3%.

Regarding `CCCCn1nnnc1C(c1cccc(OC)c1OC)N1CCC(n2c(=O)[nH]c3ccccc32)CC1` (configuration not stated), the activation was inactive: -0.43%. As for `O=c1[nH]c2ccccc2n1C1CCN(C(c2cccs2)c2nnnn2C2CCCC2)CC1` (configuration not stated), the figure is inactive: -1.59%. As for `O=C(OC1CN2CCC1CC2)C1c2ccccc2C=Cc2ccccc21` (configuration not stated), the figure is inactive: -13.4%; as for `CN(C)c1cccc(C(=O)NCC2(N3CCCCC3)CCCCC2)c1`, inactive: -7.95%; as for `COc1ccc(CN(CCCl)CCCl)cc1Cl`, inactive: -7.2%. For the molecule `CC(C)c1ccc(NC2CCN(C(=O)OC(C)(C)C)CC2)cc1`, the activation is inactive: -5.88%. As for `CCCCn1nnnc1C(c1ccccc1OC(F)(F)F)N1CCC(n2c(=O)[nH]c3ccccc32)CC1` (configuration not stated), the figure is inactive: -0.97%; as for `CCCCn1nnnc1C(c1ccnc2ccccc12)N1CCC(n2c(=O)[nH]c3ccccc32)CC1` (configuration not stated), inactive: -9.48%; as for `CCC(c1nnnn1C(C)(C)C)N1CCC(n2c(=O)[nH]c3ccccc32)CC1` (configuration not stated), inactive: -3.52%.

Take `O=C(NCC1(N2CCOCC2)CCCCC1)c1cc(F)c(F)cc1Cl`: the activation is inactive: -6.04%. As for `COc1cc(OC)c(C(=O)NCC2(N(C)C)CCCCC2)cc1OC`, the figure is inactive: -6.56%; as for `O=C(NCC1(N2CCCCC2)CCCCC1)c1cncc(Br)c1`, inactive: -7.44%; as for `CN1CCC(Nc2cccc(F)c2)CC1`, inactive: 1.52%.

Regarding `CCCOc1ccc(C(=O)NCC2(N(C)C)CCCCC2)cc1OC`, the activation was inactive: -6.41%. As for `Cc1ccc(C(=O)NCC2(N(C)C)CCCCC2)o1`, the figure is inactive: -4.38%; as for `COc1ccc(C(c2nnnn2C2CCCC2)N2CCC(n3c(=O)[nH]c4ccccc43)CC2)cc1` (configuration not stated), inactive: 0.78%; as for `O=C(NCC1(N2CCCCC2)CCCCC1)c1ccc(OC(F)F)cc1`, inactive: -9.05%. As for `CC(C)(C)n1nnnc1C(c1ccccc1OC(F)(F)F)N1CCC(n2c(=O)[nH]c3ccccc32)CC1` (configuration not stated), the figure is inactive: 5.77%; as for `CSc1ccc(C(=O)NCC2(N3CCOCC3)CCCCC2)cc1`, inactive: -5.79%. As for `O=C(NCC1(N2CCCCC2)CCCCC1)c1cccc([N+](=O)[O-])c1`, the figure is inactive: -5.3%; as for `N#CC1(Nc2ccccc2)CCN(CCc2ccccc2)CC1`, inactive: -3.69%; as for `O=c1[nH]c2ccccc2n1C1CCN(C(c2ccccc2OC(F)(F)F)c2nnnn2C2CCCC2)CC1` (configuration not stated), inactive: -2.65%.

On to `CCN1CCC(Nc2ccc(Cl)cc2)CC1`, for which the activation was inactive: -2.33%. As for `O=C(NCC1(N2CCCCC2)CCCCC1)c1cccc(C(F)(F)F)c1`, the figure is inactive: -5.97%. `CCCCn1nnnc1C(c1cccc2ccccc12)N1CCC(n2c(=O)[nH]c3ccccc32)CC1` (configuration not stated): the activation is inactive: 1.22%. As for `CN1CCN(CCOC(=O)C(O)(c2ccccc2)c2ccccc2)CC1`, the figure is inactive: -10.2%. With `COc1ccc(NC2CCN(C(=O)OC(C)(C)C)CC2)cc1`, the activation was inactive: -6.95%. As for `CC(C)c1ccc(C(=O)NCC2(N3CCOCC3)CCCCC2)cc1`, the figure is inactive: -6.17%; as for `COc1cc(C(=O)NCC2(N3CCCCC3)CCCCC2)ccc1OC(F)F`, inactive: -11.7%; as for `O=C(NCC1(N2CCOCC2)CCCCC1)c1cc(=O)[nH]c2ccccc12`, inactive: -4.25%. As for `CCOc1ccc(C)cc1CN(CCCl)CCCl`, the figure is inactive: -2.72%; as for `O=C1CCN(Cc2ccccc2)CC1`, inactive: -11.7%; as for `CC(C)(C)n1nnnc1C(c1ccccc1)N1CCC(n2c(=O)[nH]c3ccccc32)CC1` (configuration not stated), inactive: 15.1%. As for `COc1ccc(NC2CCN(CCc3ccccc3)CC2)c(OC)c1`, the figure is inactive: -13%; as for `CCOC(=O)N1CCC(Nc2ccc(F)cc2)CC1`, inactive: -5.3%; as for `O=C(NCC1(N2CCCCC2)CCCCC1)c1ccc(F)cc1`, inactive: -8.66%. Turning to `O=P1(N(CCCl)CCCl)SCCCS1`, the activation is inactive: -4.34%. For `CCCCn1nnnc1C(c1cc2ccccc2o1)N1CCC(n2c(=O)[nH]c3ccccc32)CC1` (configuration not stated), the activation is inactive: 2.14%.

Consider `CCCCOc1ccc(C(=O)NCC2(N3CCOCC3)CCCCC2)cc1`, for which the activation is inactive: -5.14%. As for `O=c1[nH]c2ccccc2n1C1CCN(C(c2ccccc2)c2nnnn2C2CCCCC2)CC1` (configuration not stated), the figure is inactive: 5.03%; as for `O=c1[nH]c2ccccc2n1C1CCN(C(c2cccc3ccccc23)c2nnnn2C2CCCC2)CC1` (configuration not stated), inactive: 2.34%.

Turning to `COc1cc(C(=O)NCC2(N(C)C)CCCCC2)ccc1OC(F)F`, the activation is inactive: -5.84%.

Consider `CCOC(=O)N1CCC(Nc2cccc(C)c2)CC1`, for which the activation was inactive: -5.61%. As for `CCCCn1nnnc1C(c1cccs1)N1CCC(n2c(=O)[nH]c3ccccc32)CC1` (configuration not stated), the figure is inactive: 1.52%; as for `CCCCn1nnnc1C(CC)N1CCC(n2c(=O)[nH]c3ccccc32)CC1` (configuration not stated), inactive: -2.17%; as for `O=C(NCC1(N2CCCCC2)CCCCC1)c1cccs1`, inactive: -3.32%.

With `O=C(NCC1(N2CCCCC2)CCCCC1)c1ccc(=O)[nH]c1`, the activation is inactive: -3.46%. For `CCC(c1nnnn1C1CCCC1)N1CCC(n2c(=O)[nH]c3ccccc32)CC1` (configuration not stated), the activation is inactive: -1.38%. For the molecule `COc1ccc(C(=O)NCC2(N3CCCCC3)CCCCC2)c(OC)c1OC`, the activation is inactive: -3.52%.

`CC(C)(C)OC(=O)N1CCC(N(C(=O)c2ccccc2)c2ccc(F)cc2)CC1`: the activation was inactive: -5.53%. As for `COc1ccc(C(=O)NCC2(N3CCCCC3)CCCCC2)cc1`, the figure is inactive: -9.95%; as for `Cc1cccc(NC2(C#N)CCN(Cc3ccccc3)CC2)c1`, inactive: -2.25%. `CSc1ccccc1C(=O)NCC1(N2CCCCC2)CCCCC1`: the activation was inactive: -10.6%. As for `O=C(NCC1(N2CCOCC2)CCCCC1)c1cc2ccccc2o1`, the figure is inactive: -5.29%; as for `Cc1cc(C)cc(N(C(=O)c2ccccc2)C2CCN(C(=O)OC(C)(C)C)CC2)c1`, inactive: -5.55%; as for `O=c1[nH]c2ccccc2n1C1CCN(C(c2ccccc2OC(F)(F)F)c2nnnn2C2CCCCC2)CC1` (configuration not stated), inactive: -1.59%.

As for `O=C(NCC1(N2CCCCC2)CCCCC1)c1ccc(Cl)nc1`, the activation is inactive: -7.05%. As for `CCCCn1nnnc1C(c1ccc(OC)cc1)N1CCC(n2c(=O)[nH]c3ccccc32)CC1` (configuration not stated), the figure is active: 65%.

Take `CCOC(=O)N1CCC(Nc2ccc(OC)cc2)CC1`: the activation was inactive: -6.39%. As for `COc1ccc(Cl)cc1C(=O)NCC1(N2CCOCC2)CCCCC1`, the figure is inactive: -7.13%; as for `O=C(OC1CN2CCC1CC2)C1c2ccccc2Oc2ccccc21` (configuration not stated), inactive: -8.39%; as for `O=c1[nH]c2ccccc2n1C1CCN(C(c2cc3ccccc3o2)c2nnnn2C2CCCCC2)CC1` (configuration not stated), inactive: 1.25%.

For `N#CC1(Nc2ccccc2)CCN(Cc2ccccc2)CC1`, the activation is inactive: -1.53%.

For the molecule `O=C(NCC1(N2CCCCC2)CCCCC1)c1ccc(Cl)s1`, the activation was inactive: -7.82%.

Values taken from PubChem BioAssay AID588814 (The Scripps Research Institute Molecular Screening Center, 2011).
